From patent publication US7384912B2, “Treatment of bone disorders with skeletal anabolic drugs” (Osteotrophin, LLC, priority 2002, dated 2008)
Read-outs that look alike come from different tables or passages of the source. Marks after values point to notes of the source that are not given here.

What was measured:
[1] = molecular target: T1, PTH/PTHrP receptors in human renal cortical membranes (RCM) (Homo sapiens, UniProt Q03431); experiment: Competition binding of 125I-(Tyr36)hPTHrP-(1-36)NH2 to human renal cortical membranes; conditions: 30° C., 30 min, read-out: Binding (IC50) Kidney membranes
T1 sequence (Q03431 27-593): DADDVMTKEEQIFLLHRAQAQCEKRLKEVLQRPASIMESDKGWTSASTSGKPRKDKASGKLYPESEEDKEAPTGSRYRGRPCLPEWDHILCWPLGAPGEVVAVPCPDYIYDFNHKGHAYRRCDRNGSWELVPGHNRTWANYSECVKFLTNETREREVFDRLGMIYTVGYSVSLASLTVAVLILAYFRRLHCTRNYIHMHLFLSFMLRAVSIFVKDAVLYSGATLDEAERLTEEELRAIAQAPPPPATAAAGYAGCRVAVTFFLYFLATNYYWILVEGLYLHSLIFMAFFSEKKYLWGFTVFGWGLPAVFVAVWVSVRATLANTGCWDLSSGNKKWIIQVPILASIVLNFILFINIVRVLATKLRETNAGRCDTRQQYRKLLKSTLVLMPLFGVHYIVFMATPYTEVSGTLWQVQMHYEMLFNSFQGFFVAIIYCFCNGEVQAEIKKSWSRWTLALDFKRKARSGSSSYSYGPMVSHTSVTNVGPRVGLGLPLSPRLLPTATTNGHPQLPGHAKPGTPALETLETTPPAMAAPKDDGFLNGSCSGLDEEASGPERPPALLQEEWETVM
Experimental: All steps were performed in the presence of the following protease inhibitors: aprotinin [10 Kallikrein inhibitor units (KIU/ml], pepstatin (5 μg/ml), leupeptin (45 μg/ml), and phenylmethanesulfanylfluoride (10 μg/ml). Normal human kidney cortex was from four separate nephrectomy specimens removed for localized transitional cell carcinoma, renal cell carcinoma, or benign cysts. Renal function in all individuals was normal as assessed by serum creatinine and pyelography. Membranes were pooled, aliquoted, and stored at −70° C. for later use.
Human RCM were added to a final concentration of 90 μg/ml. […] The incubation time of 30 min was used for subsequent equilibrium binding competition studies.
Statistical differences were assessed by paired and unpaired two-tailed Student's t test.

[2] = molecular target: T2, PTH/PTHrP receptors on SaOS-2 intact cells (Homo sapiens, UniProt Q03431); experiment: Competition binding of 125I-(Tyr36)hPTHrP-(1-36)NH2 to SaOS-2 intact cells; conditions: 15° C., 150 min
T2 sequence (Q03431 27-593): T1 sequence (Q03431 27-593)

[3] = tested on: ovariectomized (OVX) rats; experiment: Body weight, serum chemistries, kidney calcium and deaths in ovariectomized rats; conditions: for Alkaline Phosphatase / Body Weight Gain / Kidney calcium content / Serum Calcium / Serum Creatinine / Serum Magnesium / Serum Phosphate / Serum Urea Nitrogen: 40 μg/kg/day s.c. once daily
Experimental: All studies were performed using virus- and antibody-negative female Sprague-Dawley rats from Harlan Sprague-Dawley (Indianapolis, Ind.). All rats underwent sham ovariectomy or ovariectomy at 5 months of age. Studies began at six months of age, one month following ovariectomy or sham operation. Rats were maintained on a diet containing 0.5% calcium and 0.4% phosphorus. The light cycle was 12 hours.
The protocol employed is described in schematic form in Table IV. Animals were randomly assigned to 17 groups of 10 as described in the Table. […] For the peptide-treated animals, the peptide was administered daily, subcutaneously at a dose of 40 μg/kg/day, in the vehicle described above. For vehicle-treated animals, vehicle alone was administered in an identical fashion.
Serum and urine chemistries as described in Table XI were performed using standard autoanalyser methods (Boehringer-Mannheim-Hitachi, Indianapolis, Ind.). Kidney calcium content was determined following extraction of whole kidneys in 5% trichloroacetic acid, followed by calcium measurement by calcium analyzer (Calcette, Midfield, Mass.).

[4] = cited from earlier work
[5] = tested on: patients with osteoporosis; conditions: cited from earlier work
rats = conditions: daily administration to rats over a two-year period (Eli Lilly report to the FDA); cited from earlier work
[6] = molecular target: T3, PTH/PTHrP receptors in SaOS-2 membranes (Homo sapiens, UniProt Q03431); experiment: Competition binding of 125I-(Tyr36)hPTHrP-(1-36)NH2 to SaOS-2 membranes; conditions: 30° C., 60 min
T3 sequence (Q03431 27-593): T1 sequence (Q03431 27-593)

bovine (b)PTH-(1-34) [bPTH-(1-34)] gave an IC50 [1] of 0.39 ± 0.06 nM and an IC50 [2] of 1.3 ± 0.1 nM.
In the case of hPTH-(1-34), the “treated animals that died during the study” value ([3]; 30 OVX rats per peptide, 40 μg/kg/day, six month study) is reported as 3%, the “Alkaline Phosphatase” value ([3]; OVX rats, 30 days) is reported as 83 ± 3 IU/L and the “Body Weight Gain” value ([3]; OVX rats, 30 days) is reported as 2.2 ± 1.3 g. The Kidney calcium content ([3]; OVX rats, 30 days) was 0.25 ± 0.02 mg Ca/gm wet wt, the “Serum Calcium” value ([3]; OVX rats, 30 days) was 10.7 ± 0.1^a mg/dL and the “Serum Creatinine” value ([3]; OVX rats, 30 days) was 0.80 ± 0.01 mg/dL. The “Serum Magnesium” value ([3]; OVX rats, 30 days) was 2.89 ± 0.06 mg/dL, the “Serum Phosphate” value ([3]; OVX rats, 30 days) was 6.5 ± 0.2^ac mg/dL and the “Serum Urea Nitrogen” value ([3]; OVX rats, 30 days) was 20.1 ± 0.8^ac mg/dL. For the same substance, the “Alkaline Phosphatase” value ([3]; OVX rats, 90 days) was 102 ± 6^c IU/L, the “Body Weight Gain” value ([3]; OVX rats, 90 days) was 30.6 ± 4.8 g and the Kidney calcium content ([3]; OVX rats, 90 days) was 0.36 ± 0.06^ac mg Ca/gm wet wt. The “Serum Calcium” value ([3]; OVX rats, 90 days) was 10.7 ± 0.1^ac mg/dL, the “Serum Creatinine” value ([3]; OVX rats, 90 days) was 0.78 ± 0.02 mg/dL and the “Serum Magnesium” value ([3]; OVX rats, 90 days) was 2.70 ± 0.03 mg/dL. For the same substance, the “Serum Phosphate” value ([3]; OVX rats, 90 days) was 5.4 ± 0.2^c mg/dL, the “Serum Urea Nitrogen” value ([3]; OVX rats, 90 days) was 22.1 ± 1.2 mg/dL and the “Body Weight Gain” value ([3]; OVX rats, 180 days) was 41.4 ± 16.2 g. For the same substance, the Kidney calcium content ([3]; OVX rats, 180 days) was 0.24 ± 0.02^a mg Ca/gm wet wt, the “Serum Calcium” value ([3]; OVX rats, 180 days) was 10.9 ± 0.2^a mg/dL and the “Serum Creatinine” value ([3]; OVX rats, 180 days) was 0.75 ± 0.02 mg/dL. The “Serum Magnesium” value ([3]; OVX rats, 180 days) was 2.80 ± 0.07^c mg/dL, the “Serum Phosphate” value ([3]; OVX rats, 180 days) was 6.0 ± 0.3^c mg/dL and the “Serum Urea Nitrogen” value ([3]; OVX rats, 180 days) was 19.8 ± 0.8 mg/dL. The “mean serum calcium, in words” value ([3]; OVX rats, throughout the six month study) was “remained normal”, the “time of peak plasma levels” value ([4]; following injection, reported in two studies) was 30 to 45 min and the T1/2 ([4]; reported for hPTH(1-34)) was “five to six”. The “incidence of hypercalcemia (serum calcium greater than […])” value ([5]; 20 microgram dose (Neer et al.)) was 11%, the “incidence of hypercalcemia (serum calcium greater than […])” value ([5]; 40 microgram dose (Neer et al.)) was 28% and the tumor findings (rats) was “development of osteogenic sarcomas”.
Substance rat (r)PTH-(1-34) [rPTH-(1-34)] has an IC50 [1] of 0.35 ± 0.15 nM, an IC50 [6] of 0.56 ± 0.06 nM and an IC50 [2] of 0.9 ± 0.2 nM.
With hPTHrP-(1-74) the IC50 [1] was 9.5 ± 3.5 nM and the IC50 [2] was 12.9 ± 1.4 nM.
